Data on six molecules can be found in ChEMBL document CHEMBL5725597, “Substituted pyrrolo[3′,2′:5,6]pyrido[4,3-d]pyrimidines and JAK inhibitors comprising the same” (2017).

Chains of the proteins cited; added tags and fusions are not shown. Lines headed by an entry give the natural chain unless they say otherwise; changes in a name come on top.
UniProt O60674: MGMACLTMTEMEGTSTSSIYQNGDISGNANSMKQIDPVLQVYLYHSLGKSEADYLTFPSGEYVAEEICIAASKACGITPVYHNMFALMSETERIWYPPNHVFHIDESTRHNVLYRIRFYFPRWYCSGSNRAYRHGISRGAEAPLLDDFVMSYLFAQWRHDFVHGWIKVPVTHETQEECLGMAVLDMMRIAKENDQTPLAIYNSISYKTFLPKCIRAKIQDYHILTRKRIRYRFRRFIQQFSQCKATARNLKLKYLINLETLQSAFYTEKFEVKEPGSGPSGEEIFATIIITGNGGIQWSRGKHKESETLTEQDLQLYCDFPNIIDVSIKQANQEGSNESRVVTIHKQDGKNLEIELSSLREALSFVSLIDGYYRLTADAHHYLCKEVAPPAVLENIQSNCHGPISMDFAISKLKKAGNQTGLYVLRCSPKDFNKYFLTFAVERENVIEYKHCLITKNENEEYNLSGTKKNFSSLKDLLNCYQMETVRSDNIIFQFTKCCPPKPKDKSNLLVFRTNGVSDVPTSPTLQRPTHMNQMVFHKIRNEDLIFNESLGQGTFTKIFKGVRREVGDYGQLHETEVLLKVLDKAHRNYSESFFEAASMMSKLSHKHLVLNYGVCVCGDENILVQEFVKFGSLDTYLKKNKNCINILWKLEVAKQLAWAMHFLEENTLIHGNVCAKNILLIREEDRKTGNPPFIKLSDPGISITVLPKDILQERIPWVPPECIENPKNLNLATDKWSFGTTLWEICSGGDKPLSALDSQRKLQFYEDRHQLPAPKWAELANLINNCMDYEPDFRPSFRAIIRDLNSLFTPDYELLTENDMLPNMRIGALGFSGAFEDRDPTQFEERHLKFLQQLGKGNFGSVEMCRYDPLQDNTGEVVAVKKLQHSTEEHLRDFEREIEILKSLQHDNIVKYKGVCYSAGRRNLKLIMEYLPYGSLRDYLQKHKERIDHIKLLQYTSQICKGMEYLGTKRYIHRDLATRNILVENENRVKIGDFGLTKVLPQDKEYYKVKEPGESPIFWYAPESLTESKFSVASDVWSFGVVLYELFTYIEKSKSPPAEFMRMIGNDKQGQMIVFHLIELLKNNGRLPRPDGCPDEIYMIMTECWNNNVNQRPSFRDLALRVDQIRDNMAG
UniProt P29597: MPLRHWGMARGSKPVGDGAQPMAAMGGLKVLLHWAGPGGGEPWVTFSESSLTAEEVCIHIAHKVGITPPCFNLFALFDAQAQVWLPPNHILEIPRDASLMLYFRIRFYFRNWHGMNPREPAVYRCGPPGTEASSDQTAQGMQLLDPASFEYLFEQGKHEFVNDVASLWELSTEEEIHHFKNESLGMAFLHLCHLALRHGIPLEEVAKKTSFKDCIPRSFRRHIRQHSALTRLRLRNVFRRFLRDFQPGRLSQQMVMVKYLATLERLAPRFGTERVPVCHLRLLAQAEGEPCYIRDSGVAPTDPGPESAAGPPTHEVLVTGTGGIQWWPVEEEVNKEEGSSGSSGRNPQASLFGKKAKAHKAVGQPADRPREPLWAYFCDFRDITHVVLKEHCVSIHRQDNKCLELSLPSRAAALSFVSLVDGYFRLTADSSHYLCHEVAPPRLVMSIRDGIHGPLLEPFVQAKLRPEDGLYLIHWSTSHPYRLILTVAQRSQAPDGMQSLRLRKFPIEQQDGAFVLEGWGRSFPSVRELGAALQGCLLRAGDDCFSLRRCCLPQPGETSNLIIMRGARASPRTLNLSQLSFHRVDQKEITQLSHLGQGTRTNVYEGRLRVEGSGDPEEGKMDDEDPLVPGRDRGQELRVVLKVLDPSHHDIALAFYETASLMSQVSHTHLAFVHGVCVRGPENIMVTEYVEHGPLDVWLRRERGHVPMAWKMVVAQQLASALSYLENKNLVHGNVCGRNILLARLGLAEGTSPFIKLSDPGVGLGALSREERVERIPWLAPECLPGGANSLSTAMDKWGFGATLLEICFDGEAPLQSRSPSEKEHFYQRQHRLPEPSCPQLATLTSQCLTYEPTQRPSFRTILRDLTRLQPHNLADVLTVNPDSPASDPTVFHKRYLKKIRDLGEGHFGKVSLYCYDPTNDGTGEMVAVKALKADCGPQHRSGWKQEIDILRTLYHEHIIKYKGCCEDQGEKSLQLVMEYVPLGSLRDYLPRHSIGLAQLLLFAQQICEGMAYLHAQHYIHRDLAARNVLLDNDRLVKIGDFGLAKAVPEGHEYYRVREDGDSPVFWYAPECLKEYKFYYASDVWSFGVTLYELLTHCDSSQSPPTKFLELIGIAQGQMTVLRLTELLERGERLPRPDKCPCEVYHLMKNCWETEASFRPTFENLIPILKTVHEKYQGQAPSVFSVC
UniProt P23458: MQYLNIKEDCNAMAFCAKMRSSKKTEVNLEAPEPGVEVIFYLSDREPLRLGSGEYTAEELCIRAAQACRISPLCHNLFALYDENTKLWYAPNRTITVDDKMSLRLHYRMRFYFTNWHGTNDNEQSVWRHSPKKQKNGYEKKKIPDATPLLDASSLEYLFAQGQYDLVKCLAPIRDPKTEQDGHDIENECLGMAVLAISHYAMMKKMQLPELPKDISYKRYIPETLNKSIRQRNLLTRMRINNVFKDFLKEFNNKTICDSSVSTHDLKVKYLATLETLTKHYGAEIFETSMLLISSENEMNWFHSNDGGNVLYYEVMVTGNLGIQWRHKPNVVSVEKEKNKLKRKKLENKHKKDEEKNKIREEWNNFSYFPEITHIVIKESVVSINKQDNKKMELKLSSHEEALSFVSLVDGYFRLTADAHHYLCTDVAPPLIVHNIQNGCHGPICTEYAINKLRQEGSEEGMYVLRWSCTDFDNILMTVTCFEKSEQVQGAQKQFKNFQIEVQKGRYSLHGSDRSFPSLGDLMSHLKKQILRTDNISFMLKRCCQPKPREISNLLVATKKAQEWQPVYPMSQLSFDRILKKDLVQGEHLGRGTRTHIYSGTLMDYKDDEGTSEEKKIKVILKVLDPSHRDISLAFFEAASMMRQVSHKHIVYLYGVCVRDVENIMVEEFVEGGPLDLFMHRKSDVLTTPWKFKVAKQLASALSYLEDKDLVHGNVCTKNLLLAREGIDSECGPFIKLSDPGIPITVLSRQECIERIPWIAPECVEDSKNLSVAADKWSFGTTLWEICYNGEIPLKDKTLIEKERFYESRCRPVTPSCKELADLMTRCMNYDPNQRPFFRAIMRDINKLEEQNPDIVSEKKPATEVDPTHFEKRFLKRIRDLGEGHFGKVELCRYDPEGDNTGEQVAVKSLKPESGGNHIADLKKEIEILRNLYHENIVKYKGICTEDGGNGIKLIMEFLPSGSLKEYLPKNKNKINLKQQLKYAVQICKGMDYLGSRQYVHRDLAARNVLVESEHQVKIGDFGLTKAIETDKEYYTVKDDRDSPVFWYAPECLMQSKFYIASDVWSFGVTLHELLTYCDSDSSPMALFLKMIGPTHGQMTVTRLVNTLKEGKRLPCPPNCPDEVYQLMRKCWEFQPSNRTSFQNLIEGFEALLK

What is called IC50 is the point on the concentration scale where inhibition reaches its midpoint. Low readings indicate inhibition by little substance, high ones a need for much substance.

Structures are written as SMILES.

Experiment [1] has as its target T1, Tyrosine-protein kinase JAK3 (Homo sapiens, UniProt P52333).
T1 sequence (P52333 whole entry): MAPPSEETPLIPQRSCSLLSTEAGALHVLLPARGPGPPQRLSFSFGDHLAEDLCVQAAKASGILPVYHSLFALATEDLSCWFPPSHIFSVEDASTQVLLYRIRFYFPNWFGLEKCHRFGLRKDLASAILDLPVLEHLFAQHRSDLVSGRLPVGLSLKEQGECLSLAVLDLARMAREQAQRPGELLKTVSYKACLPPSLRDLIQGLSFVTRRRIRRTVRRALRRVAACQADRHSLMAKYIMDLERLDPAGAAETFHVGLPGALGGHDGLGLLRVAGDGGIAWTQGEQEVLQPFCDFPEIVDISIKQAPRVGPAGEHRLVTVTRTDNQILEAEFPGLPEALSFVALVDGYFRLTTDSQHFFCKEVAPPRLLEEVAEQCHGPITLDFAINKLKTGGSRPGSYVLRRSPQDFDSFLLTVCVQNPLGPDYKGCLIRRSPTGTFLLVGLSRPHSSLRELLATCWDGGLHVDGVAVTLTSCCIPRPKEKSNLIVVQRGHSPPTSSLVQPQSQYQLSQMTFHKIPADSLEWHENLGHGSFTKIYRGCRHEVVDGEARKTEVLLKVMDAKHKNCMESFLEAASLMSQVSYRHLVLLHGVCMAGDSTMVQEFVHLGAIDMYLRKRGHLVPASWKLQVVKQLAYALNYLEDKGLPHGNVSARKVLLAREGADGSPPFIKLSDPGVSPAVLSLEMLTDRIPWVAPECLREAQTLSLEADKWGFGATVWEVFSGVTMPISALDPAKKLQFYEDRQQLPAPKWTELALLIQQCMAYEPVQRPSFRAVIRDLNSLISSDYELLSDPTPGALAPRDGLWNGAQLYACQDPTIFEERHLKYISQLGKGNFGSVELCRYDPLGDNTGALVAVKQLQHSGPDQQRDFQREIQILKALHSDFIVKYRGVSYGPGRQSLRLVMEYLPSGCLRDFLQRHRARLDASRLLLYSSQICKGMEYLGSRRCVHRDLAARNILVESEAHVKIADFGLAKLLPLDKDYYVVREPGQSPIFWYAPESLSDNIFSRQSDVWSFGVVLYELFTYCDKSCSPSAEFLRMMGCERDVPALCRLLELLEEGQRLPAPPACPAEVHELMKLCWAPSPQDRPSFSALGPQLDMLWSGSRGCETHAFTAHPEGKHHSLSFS

Experiment [2] addresses Tyrosine-protein kinase JAK2 (Homo sapiens, UniProt O60674). Put plainly: Enzyme Assay: JAK1, JAK2, JAK3 and Tyk2 were purchased from Carna Biosciences, Inc. As the substrate, LANCE Ultra ULight-JAK1 Peptide (manufactured by PerkinElmer Co., Ltd. (PE)) was used. Dilute solutions of compounds and enzymes in assay buffer (50 mM HEPES pH7.5, 1 mM EGTA, 1 mM MgCl2, 2 mM DTT, 0.01% Tween20) were dispensed into wells of a 384-well black plate. After 5 minutes of ….

For experiment [3], the target named is Non-receptor tyrosine-protein kinase TYK2 (Homo sapiens, UniProt P29597). Described as above.
The target of experiment [4] is Tyrosine-protein kinase JAK1 (Homo sapiens, UniProt P23458).

Take `N#Cc1ccc(CN2CCCC(c3nnn4cnc5[nH]ccc5c34)C2)cc1` (stereo not given): the IC50 in experiment [1] was found to be 370 nM.

With `c1cc2c(ncn3nnc(C4CCCN(Cc5cncs5)C4)c23)[nH]1` (racemic), the IC50 in experiment [2] came out at 1300 nM; in experiment [3] it was 1500 nM; in experiment [1], 2200 nM; in experiment [4], 290 nM.

With `FC(F)(F)c1ccc(CN2CCCC(c3nnn4cnc5[nH]ccc5c34)C2)cc1` (racemic), the IC50 in experiment [1] was found to be 100 nM.

`Fc1cccc(CN2CCC(c3nnn4cnc5[nH]ccc5c34)CC2)c1`: the IC50 in experiment [2] is 20 nM.

As to `N#CCC(=O)N1CCCC(c2ncn3cnc4[nH]ccc4c23)C1` (racemic), the IC50 was found to be 100 nM in experiment [2] and 30 nM in experiment [4].

`OC[C@H]1CC[C@H](c2nnn3cnc4[nH]ccc4c23)CC1` came in with an IC50 in experiment [3] of 1600 nM.
